Experimental data as given in patent US20230069749A1, “USE OF POZIOTINIB FOR THE TREATMENT OF CANCERS WITH NRG1 FUSIONS” (Board of Regents, The University of Texas System, priority 2020, published 2023).

System: NRG1-DOC4 fusion breast cancer cell line, MDA175-VII
Assay: Cell viability of MDA175-VII cells by Cell Titer Glo assay
Assay type: cell-based
Conditions: HER2 targeting antibody alone, 72 hours
Protocol: The cell viability of NRG1-DOC4 fusion breast cancer cell line, MDA175-VII, was tested with treatment of poziotinib with and without antibodies and antibody drug conjugates (ADCs) targeting HER2 and HER2/HER3 dimerization. Cell viability was determined by the Cell Titer Glo assay.

- IC50 values: > 10 µg/mL
Substance: trastuzumab: humanized, IgG1 kappa, monoclonal antibody that selectively binds the extracellular domain of HER2 (ErbB2)
